From US11452714B2, “Antibacterial agents including histidine kinase inhibitors” (Regents of the University of Minnesota, priority 2017, dated 2022)
Read-outs that look alike come from different tables or passages of the source.

Legend:
histidine kinase HK853 [1] = target: T1, histidine kinase HK853 (Thermotoga maritima, UniProt Q9WZV7); conditions: non-native bases or nucleosides, Comparative Example 1
T1 sequence (Q9WZV7 232-489): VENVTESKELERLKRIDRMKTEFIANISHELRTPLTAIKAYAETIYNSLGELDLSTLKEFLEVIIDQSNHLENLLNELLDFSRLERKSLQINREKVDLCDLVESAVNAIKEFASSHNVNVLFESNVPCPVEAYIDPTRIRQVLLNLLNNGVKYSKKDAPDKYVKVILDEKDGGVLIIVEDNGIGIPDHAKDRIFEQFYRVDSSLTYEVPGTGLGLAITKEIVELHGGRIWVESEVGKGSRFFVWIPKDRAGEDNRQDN

histidine kinase HK853 [2] = target: T1, histidine kinase HK853; assay: biochemical

O=c1[nH]cnc2nc[nH]c12 [Hypoxanthine, reference compound]
IC50 (histidine kinase HK853 [1]): 1200 µM

OCC1OC(n2cnc3c(NCCc4ccccc4)ncnc32)C(O)C1O (centres unmarked) [Compound C20]
IC50 (histidine kinase HK853 [2]): 1200 µM
